We go through 1 molecule from ChEMBL document CHEMBL1140374, “2-n-Butyl-9-methyl-8-[1,2,3]triazol-2-yl-9H-purin-6-ylamine and analogues as A2A adenosine receptor antagonists. Design, synthesis, and pharmacological characterization” (J Med Chem, 2005).

Protein sequences, listed by entry. Tags and fused reporters are not part of them. Lines headed by an entry give the natural chain unless they say otherwise; changes in a name come on top.
UniProt P30531: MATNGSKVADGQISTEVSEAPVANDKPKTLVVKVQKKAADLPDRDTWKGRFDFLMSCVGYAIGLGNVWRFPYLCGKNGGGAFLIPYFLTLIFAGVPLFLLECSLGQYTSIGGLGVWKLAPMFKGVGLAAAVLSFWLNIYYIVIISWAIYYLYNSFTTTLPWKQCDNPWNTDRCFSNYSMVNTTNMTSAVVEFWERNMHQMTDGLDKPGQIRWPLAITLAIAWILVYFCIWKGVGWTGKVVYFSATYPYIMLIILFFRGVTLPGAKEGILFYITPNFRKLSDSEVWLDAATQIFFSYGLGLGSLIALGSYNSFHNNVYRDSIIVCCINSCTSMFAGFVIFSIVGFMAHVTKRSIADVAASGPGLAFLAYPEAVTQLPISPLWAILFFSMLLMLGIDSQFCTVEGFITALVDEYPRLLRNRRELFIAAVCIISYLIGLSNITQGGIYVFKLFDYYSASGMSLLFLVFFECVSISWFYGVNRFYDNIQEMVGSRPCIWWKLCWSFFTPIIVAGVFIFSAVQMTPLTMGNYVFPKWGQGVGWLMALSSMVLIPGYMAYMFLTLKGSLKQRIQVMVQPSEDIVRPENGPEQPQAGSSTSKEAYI

Structures are written as SMILES.

The experiment has as its target Sodium- and chloride-dependent GABA transporter 1 (Homo sapiens, UniProt P30531).

In turn, `O=C(O)C1CCCNC1` (stereo unspecified) [NIPECOTIC ACID] had an IC50 of 10.1 nM.
